miR-21 reporter: miR-21 reporter, rising signal | AID 2288 | HeLa miR-21 FLuc reporter, luciferase, 48 h | 340,000 tested, under 10 active | Potency, µM (doses to about 38.3 µM); active = well fitted rising curve with a large enough effect; inconclusive = small, poorly fitted or top-dose-only effect; inactive = no such curve, though single readings can be large or run the other way;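 note: miR-21 action dims this reporter so a rising signal means less miR-21 action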
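Compounds were titrated across several concentrations (up to approximately 40 uM) and incubated 48 hours with HeLa miR-21-FLuc reporter cells (miR-21 target sequence downstream of FLuc, endogenous miR-21). Readout was firefly luciferase luminescence after lytic detection reagent.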
PTHR1 agonist: PTHR1 (human) receptor agonism. Potency, µM (top dose mostly 115 µM), usual class: activators. 410,000 tested, 0.075% active. HEK293 GP2 PTHR1 cells, GloSensor cAMP luminescence, 1 h; further: nearly all actives have a fitted effect of over 55% in size
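HEK-293-derived GP2 cells expressing PTHR1 and a GloSensor cAMP reporter, 3,000/well, plated overnight, given luciferin plus IBMX (each 0.5 mM as added) for 1 h at 37 °C, then compound for 1 h at 37 °C. Luminescence was read after 15 min at room temperature.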
PTAP TSG101 blk: blocks PTAP/TSG101 interaction to inhibit HIV-1 budding | Q99816 | Fluorescence polarization, FITC-PTAP peptide / Tsg101 binding | Potency, µM (top dose mostly 115 µM), usual class: inhibitors | 340,000 tested, under 10 active; active means well fitted inhibition curve with a large enough effect in the main read-out, with a control signal flat, not every such curve was filed as active; inconclusive means small, poorly fitted or top-dose-only effect, or effect the other way, or a change in a side signal; inactive means no such curve, though single readings can be large or run the other way
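Compounds were pin-transferred onto Tsg101 binding domain (10 uM final) in HEPES pH 7.5 buffer, then FITC-PTAP peptide was added at 50 nM final. After 20 min at RT, polarization reported peptide displacement across a qHTS concentration series.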
Eya2 phos inh: inhibitors of human Eya2 phosphatase activity. O00167. recombinant Eya2, OMFP fluorescence dephosphorylation (OMFP is methylfluorescein phosphate). Potency, µM (top dose mostly 76.9 µM), hits mostly inhibitors. 330,000 tested, 0.006% active. AID 488837
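Eya2 (0.2 uM) preincubated 10 min at ambient with compound, then OMFP substrate added at 50 uM; 10 min reaction in 50 mM HEPES pH 7.5, 50 mM NaCl, 5 uM MgCl2, 0.05% BSA, 1 mM DTT. Fluorescence read at Ex 485/Em 525 nm.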
USP2a block: USP2a (human) protease inhibition; USP2 core, Ub-CHOP2 coupled fluorogenic reporter, 485/531; AID 463254; 330,000 tested, 0.01% active; O75604; Potency, µM (highest dose often 38.3 µM), most hits filed as inhibitors
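USP2 core (10nM final) preincubated 30min RT with compound in 20mM Tris-HCl pH 8.0, 2mM CaCl2, 2mM beta-mercaptoethanol, 0.05% CHAPS; 25nM Ub-CHOP2 plus 25nM reporter substrate added, fluorescence (Ex485/Em531) read after 60min.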
GLS inhibitor: blocks human kidney-isoform glutaminase activity; O94925; GLS enzymatic activity, qHTS titration; Potency, µM (doses to about 45.5 µM), actives largely listed as inhibitors; 410,000 tested, 0.21% active; AID 624170
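Enzyme dispensed in phosphate buffer (45 mM, pH 8.2, 0.02% Tween-20), compounds pinned in, then 1 mM L-glutamine solution and the glutamate oxidase–HRP–Amplex Red mix added; fluorescence read immediately and again after 30 min at room temperature.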
GLS confirm: confirmation of human glutaminase inhibitors | shares compounds with GLS inhibitor | biochemical glutaminase enzyme inhibition assay | Potency, µM (titrated, usually from 46.1 µM), hits mostly inhibitors | 35 tested, under 10 active | AID 624261; calls by dose curve
GLS HRP counter: counter-screen for glutaminase inhibitors: HRP coupled enzyme inhibition; shares compounds with GLS inhibitor; HRP/glutamate oxidase coupled Amplex Red fluorescence counterscreen; activity change, negative = inhibition, % at 46.1 µM; 35 tested, under 10 active; AID 624262
GLS HEK tox: HEK-293 cytotoxicity, glutaminase hit confirmation; 35 tested, under 10 active; HEK-293 viability, CellTiter-Glo luminescence, 24 h; activity change, negative = cytotoxicity, % at 46.1 µM; shares compounds with GLS inhibitor
Large screens that a line does not name were inactive (follow-up assays come after a bar, where they were run). This is a sample that favours compounds with a hit; in the whole collection about 0.24% have one here. Unless noted, the call rests on the fitted dose curve; in most records, active means well fitted curve in the direction sought with a large enough effect; inconclusive means small, poorly fitted or top-dose-only effect, or another doubt; inactive means no such curve, though single readings can be large; an effect the other way counts as inactive or inconclusive.

CCOC(=O)CC(NS(=O)(=O)c1ccc(OC)c(OC)c1)c1cccc([N+](=O)[O-])c1 (configuration not stated)	none
O=C(O)c1ccccc1NS(=O)(=O)c1cccc(-n2sc3ccccc3c2=O)c1	GLS inhibitor 7.1µM | GLS confirm 5.2µM | GLS HRP counter inactive | GLS HEK tox inactive
O=C(O)c1ccccc1NS(=O)(=O)c1cccc(C(F)(F)F)c1	none
Cc1cc(OCC(=O)Nc2ccc(C(=O)OC3CCCCC3)cc2)cc(C)c1Cl	none (no result: PTAP TSG101 blk, Eya2 phos inh, USP2a block)
NS(=O)(=O)c1ccc(CNS(=O)(=O)c2cc(C(=O)O)ccc2Cl)cc1	GLS inhibitor 11µM | GLS confirm 5.8µM | GLS HRP counter inactive | GLS HEK tox inactive
Cc1ccc(NS(=O)(=O)c2cc(C(=O)O)ccc2Cl)cc1	GLS inhibitor 11µM | GLS confirm inconclusive | GLS HRP counter inactive | GLS HEK tox inactive
O=C(O)c1ccc(NS(=O)(=O)c2cc(Cl)ccc2Cl)cc1	none
Cc1cccc(-c2nc(S(=O)(=O)c3ccccc3)c(N3CCN(c4ccccc4)CC3)o2)c1	none (no result: PTAP TSG101 blk, Eya2 phos inh, USP2a block)
CCN(CC)c1ccc(NC(=O)COc2ccccc2C#N)cc1S(=O)(=O)Nc1ccccc1OC	GLS inhibitor inconclusive | GLS confirm inactive | GLS HRP counter inactive | GLS HEK tox inactive
CCN(CC)c1ccc(N)cc1S(=O)(=O)Nc1ccccc1OC	GLS inhibitor 7.1µM | GLS confirm inactive | GLS HRP counter inconclusive | GLS HEK tox inactive
CCN(CC)c1ccc(NC(=O)c2ccccn2)cc1S(=O)(=O)Nc1ccccc1OC	none (no result: miR-21 reporter)
CCN(CC)c1ccc(N)cc1S(=O)(=O)Nc1ccc(OC)cc1	GLS inhibitor inconclusive | GLS confirm inactive | GLS HRP counter inconclusive | GLS HEK tox inactive
CC1CCC(O)C/C1=C\C=C1/CCCC2(C)C1CCC2C(C)/C=C/C(C)C(C)C (configuration not stated)	none (no result: miR-21 reporter, PTHR1 agonist, PTAP TSG101 blk, Eya2 phos inh, USP2a block)
NCCCNCCCCNC(=O)C(O)NC(=O)CCCCCCN=C(N)N (configuration not stated)	none (no result: miR-21 reporter, PTHR1 agonist, PTAP TSG101 blk, Eya2 phos inh, USP2a block)
COc1ccc(OC)c(S(=O)(=O)Nc2ccccc2O)c1	GLS inhibitor 10µM (no result: miR-21 reporter, Eya2 phos inh, USP2a block) | GLS confirm inconclusive | GLS HRP counter inconclusive | GLS HEK tox inactive
CCCN(CCC)C(=O)Cn1c(=O)n(-c2ccc(CC)cc2)c(=O)c2ccc(C(=O)NCCc3ccccc3)cc21	none (no result: PTAP TSG101 blk, Eya2 phos inh, USP2a block)
COc1ccc(S(=O)(=O)Nc2c(O)ccc3ccccc23)cc1OC	GLS inhibitor inconclusive (no result: miR-21 reporter, Eya2 phos inh, USP2a block) | GLS confirm inactive | GLS HRP counter inconclusive | GLS HEK tox inactive
COc1ccc(C(=O)Nc2c(O)ccc3ccccc23)cc1OC	none (no result: miR-21 reporter, Eya2 phos inh, USP2a block)
COc1ccc(S(=O)(=O)Nc2cccc3ccc(O)cc23)cc1	GLS inhibitor 11µM (no result: miR-21 reporter, Eya2 phos inh, USP2a block) | GLS confirm inactive | GLS HRP counter inconclusive | GLS HEK tox inconclusive
CCCCN(Cc1ccccc1)C(=O)c1oc(=O)c2ccccc2c1-c1ccc(C)cc1	miR-21 reporter inconclusive, PTHR1 agonist inconclusive (no result: PTAP TSG101 blk, Eya2 phos inh, USP2a block)

Bioassay records from PubChem BioAssay.
